Compounds with a hit are over-represented: about 3.7% of the library has one in this group of screens.
Nrf2 activator: activates Nrf2 signaling; Potency, µM (top dose mostly 46.1 µM), for inactives: at the top dose activation, usual class: activators; AREc32 ARE-luciferase reporter (MCF7-derived line), luminescence, 24 h; 410,000 compounds, 0.31% hits; AID 624171; note: potency is the fitted concentration of half-maximal effect; % of control where 0% means no effect; nearly all actives have a fitted effect of over 65% in size
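Luciferase luminescence (Steady-Glo, 30 min at room temperature) served as the read-out of ARE activation in AREc32 cells treated with compounds for 24 hr at 37 deg C.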
ClpP mod: qHTS Assay for Activators of ClpP; 340,000 compounds, 1.9% hits; ATP-dependent Clp protease proteolytic subunit (Bacillus subtilis (strain 168)), P80244; AID 651965, 2013; purified B. subtilis ClpP, FRET peptide cleavage, 20 min; Potency, µM (top dose mostly 57.5 µM), for the others: at the highest dose activity change, negative = active; active = well fitted falling curve with a large enough effect; inconclusive = small, poorly fitted or top-dose-only effect; inactive = no such curve, though single readings can be large or run the other way; note: potency is the fitted concentration of half-maximal effect; the source files actives as falling curves though it sought activators and does not explain the sign; nearly all actives have a fitted effect of over 65% in size
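Buffer: 100 mM Tris/HCl pH8, 100 mM KCl, 0.05% low protease BSA, 2.5% glycerol, 0.01% Tween-20. ClpP 10 microg/mL final; 20 min RT; delta FRET normalized to ADEP and DMSO controls.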
Nrf2 block: blocks Nrf2 signaling; AID 504444; Potency, µM (highest dose often 46 µM), without a hit: at the highest dose activity change, negative = inhibition, hits mostly inhibitors; A549 ARE-Fluc reporter, luciferase luminescence, 18-24 h; 360,000 compounds, 2.1% hits; note: potency is the fitted concentration of half-maximal effect; % is set by controls: 0 for no effect and ±100 for the full control effect; nearly all actives have a fitted effect of over 60% in size
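Cells were seeded and rested 2 h, then exposed to compounds for 18-24 h. CellTiter-Fluor was read first as a viability measure. BugLite was added 15 min before the final luminescent read of ARE-luciferase activity in A549 cells.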
p53 reactivator: mutant p53 re-activation in reporter cells | H1299 p53-A138V BP100-luciferase reporter, luminescence, 24 h | Potency, µM (top dose mostly 92.2 µM), inactives show at the highest dose activity change, positive = activation, hits mostly activators | 320,000 compounds, 0.063% hits | AID 504706; note: potency is the fitted concentration of half-maximal effect; % of control where 0% means no effect; nearly all actives have a fitted effect of over 45% in size
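H1299 (p53-null), stable ts p53-A138V + BP100-Luc; 1000 cells/well, Opti-MEM/10% FBS; cpd 4 pt, 1:5; 24 h, 37 deg C, 5% CO2; detection reagent 10 min RT; luminescence.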
miR-21 reporter: raises the signal of a miR-21 reporter | HeLa miR-21 FLuc reporter, luciferase, 48 h | 340,000 tested, under 10 active | Potency, µM (titrated, usually from 38.3 µM), inactives show at the highest dose reporter change, positive = more light; active = well fitted rising curve with a large enough effect; inconclusive = small, poorly fitted or top-dose-only effect; inactive = no such curve, though single readings can be large or run the other way;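 further: % of control where 0% means no effect; miR-21 action dims this reporter so a rising signal means less miR-21 action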
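HeLa miR-21-FLuc reporter line, endogenous miR-21; 2000 cells/well in DMEM/10% FBS; compound titration up to ~40uM final, 48 h, 37 degree Celsius; luciferase detection reagent, 15 min lysis, CCD luminescence.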
A549 tox: kills or reduces viability of A549 cells in Nrf2 counter-screen | A549 ARE-Fluc cells, CellTiter-Fluor viability, 18-24 h | Potency, µM (series often up to 46 µM), without a hit: top-dose activity change, negative = cytotoxicity, hits mostly inhibitors | 390,000 compounds, 0.16% hits; note: potency is the fitted concentration of half-maximal effect; % is set by controls: 0 for no effect and ±100 for the full control effect
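A549 ARE-Fluc cells in 5% FBS OPTI-MEM, 5000 cells/well, rested 2 h then exposed to compounds in concentration-response for 18-24 h at 37 °C. Viability by CellTiter-Fluor fluorescence (Ex 405/Em 525) after 30 min; luciferase luminescence (BugLite, 15 min, RT) read afterwards.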
* hit, by the source's call; ? = inconclusive; / = no result; [ ] = remark or other dose. Unless noted, calls come from the whole dose curve; as a rule, active = well fitted curve in the direction sought with a large enough effect; inconclusive = small, poorly fitted or top-dose-only effect, or another doubt; inactive = no such curve, though single readings can be large; an effect the other way counts as inactive or inconclusive.

#1 C=CCn1c(-c2cccs2)nc2ccccc21
#2 Cc1cccc(Cn2c(-c3cccs3)nc3ccccc32)c1
#3 C=CCn1c(-c2cccs2)nc2nc3ccccc3nc21
#4 Cc1ccc(C)c(Cn2c(-c3cccs3)nc3ccccc32)c1
#5 Cc1nn(C)c(C)c1CNC(=O)c1nn2c(c1Cl)NC(c1cccs1)CC2C(F)(F)F (stereo not given)

| screen / no. | 1 | 2 | 3 | 4 | 5 |
| --- | --- | --- | --- | --- | --- |
| miR-21 reporter | -30.2% | 11.1% | -22.7% | 20.8% | 15.5% |
| ClpP mod | 2.82µM* | ? | -0.8% | 4.8% | -0.5% |
| Nrf2 block | / | -3.2% | ? | 23.1µM* | 16.4µM* |
| A549 tox | 0.2% | -6.6% | 2.2% | ? | -11.6% |
| p53 reactivator | 3.3% | / | ? | / | -17.7% |
| Nrf2 activator | 7.7% | 0.7% | 14.6% | 7.2% | 3.0% |

#6 CCCNC(=O)NS(=O)(=O)c1cnccc1Sc1ccc(Cl)c(Cl)c1
#7 CCCNC(=O)NS(=O)(=O)c1cnccc1Sc1ccc(Cl)cc1
#8 O=C(NCc1nnc(-c2cc3ccccc3[nH]2)o1)c1ccccc1
#9 Cc1ccc2nc(-c3ccc(NC(=O)COc4ccccc4)cc3)sc2c1
#10 C=CCn1c(SCC(=O)Nc2ccc(-c3nc4ccc(C)cc4s3)cc2)nnc1-c1ccccc1

| screen / no. | 6 | 7 | 8 | 9 | 10 |
| --- | --- | --- | --- | --- | --- |
| miR-21 reporter | -21.8% | -18.6% | / | -57.1% | -66.2% |
| ClpP mod | 22.4µM* | 1.6% | / | 4.8% | 15.8µM* |
| Nrf2 block | / | / | 8.0% | ? | -10.5% |
| A549 tox | -5.8% | 7.8% | -2.0% | -2.3% | -20.9% |
| p53 reactivator | -3.7% | -4.2% | / | / | ? |
| Nrf2 activator | 0.0% | -1.5% | / | 3.0% | 1.7% |

#11 Cc1ccc2nc(-c3ccc(NC(=O)CN4C(=O)NC(C)(c5ccc(OC(F)F)cc5)C4=O)cc3)sc2c1 (stereo not given)
#12 Cc1ccc2nc(-c3ccc(NC(=O)COC(=O)c4ccco4)cc3)sc2c1
#13 CCOc1ncccc1C(=O)OCC(=O)Nc1ccc(-c2nc3ccc(C)cc3s2)cc1
#14 Clc1cccc(N2CCN(c3nc4ccccc4n4nnnc34)CC2)c1
#15 Cc1ccc2nc(-c3ccc(NC(=O)COC(=O)c4ccc(Br)o4)cc3)sc2c1

| screen / no. | 11 | 12 | 13 | 14 | 15 |
| --- | --- | --- | --- | --- | --- |
| miR-21 reporter | -29.1% | 23.9% | -29.2% | -21.8% | -30.5% |
| ClpP mod | 14.1µM* | 7.08µM* | 3.55µM* | -4.3% | 8.91µM* |
| Nrf2 block | 12.1% | 6.51µM* | ? | 1.5% | ? |
| A549 tox | -14.1% | 8.7% | 12.8% | -6.8% | -12.4% |
| p53 reactivator | / | / | / | / | / |
| Nrf2 activator | 15.6% | 0.4% | 1.5% | 4.7% | -0.5% |

#16 Cc1ccc2nc(-c3ccc(NC(=O)CN(c4ccccc4C)S(C)(=O)=O)cc3)sc2c1
#17 Cc1ccc2nc(-c3ccc(NC(=O)COC(=O)c4ccc([N+](=O)[O-])o4)cc3)sc2c1
#18 C[C@H]1CN(C2CCCCC2)C(=O)[C@@H]1CC(=O)Nc1ccc(Br)cc1
#19 CCOC(=O)c1ccc(NC(=O)CSc2nnc(CNC(=O)c3ccc(OC)cc3)n2CC)cc1
#20 Cc1cccc(C)c1-n1nnnc1C1c2ccccc2C(=O)N1CCOc1ccccc1 (stereo not given)

| screen / no. | 16 | 17 | 18 | 19 | 20 |
| --- | --- | --- | --- | --- | --- |
| miR-21 reporter | -10.7% | -17.9% | / | -22.5% | / |
| ClpP mod | 25.1µM* | 28.2µM* | 0.0% | -3.8% | -2.1% |
| Nrf2 block | / | ? | / | 9.5% | / |
| A549 tox | ? | -7.9% | / | 0.4% | / |
| p53 reactivator | ? | 3.16µM* | / | / | / |
| Nrf2 activator | 10.2% | 3.1% | -0.5% | -0.2% | 19.9% |

Numbers 18 to 20 of the list above:
#18 C[C@H]1CN(C2CCCCC2)C(=O)[C@@H]1CC(=O)Nc1ccc(Br)cc1
#19 CCOC(=O)c1ccc(NC(=O)CSc2nnc(CNC(=O)c3ccc(OC)cc3)n2CC)cc1
#20 Cc1cccc(C)c1-n1nnnc1C1c2ccccc2C(=O)N1CCOc1ccccc1 (stereo not given)

| screen / no. | 18 | 19 | 20 |
| --- | --- | --- | --- |
| miR-21 reporter | / | -22.5% | / |
| ClpP mod | 0.0% | -3.8% | -2.1% |
| Nrf2 block | / | 9.5% | / |
| A549 tox | / | 0.4% | / |
| p53 reactivator | / | / | / |
| Nrf2 activator | -0.5% | -0.2% | 19.9% |

Continuation:
#21 Cc1ccc(Cl)cc1NC(=O)CN1C(=O)c2ccccc2Sc2ncccc21
#22 O=C(CCn1c(=O)c2cccn2c2ccc(F)cc21)NCc1ccccc1F
#23 c1ccc(-c2noc(CSc3nnc(Cc4cccs4)n3-c3ccccc3)n2)cc1
#24 Clc1ccc(-c2noc(CSc3nnc(Cc4cccs4)n3-c3ccccc3)n2)cc1
#25 Cc1ccc(-c2noc(CSc3nnc(Cc4ccccc4)n3-c3cccc(C)c3)n2)cc1

| screen / no. | 21 | 22 | 23 | 24 | 25 |
| --- | --- | --- | --- | --- | --- |
| miR-21 reporter | -6.0% | 2.6% | -7.7% | 7.3% | 16.7% |
| ClpP mod | 0.5% | -7.2% | -2.4% | 0.2% | -0.1% |
| Nrf2 block | -2.0% | 10.3% | ? | 16.4µM* | 25.9µM* |
| A549 tox | 3.4% | 1.0% | -13.6% | -7.8% | ? |
| p53 reactivator | / | / | -5.5% | -0.1% | -10.2% |
| Nrf2 activator | -0.7% | 0.0% | 3.7% | -0.1% | 0.1% |

#26 COc1ccc(-c2noc(CSc3nnc(Cc4ccccc4)n3-c3cccc(C)c3)n2)cc1OC
#27 CCOc1ccc(-c2noc(CSc3nnc(Cc4ccccc4)n3-c3ccc(F)cc3)n2)cc1
#28 CCOc1ccc(-c2noc(CSc3nnc(Cc4ccccc4)n3-c3cccc(C)c3)n2)cc1
#29 COc1ccc(-c2nc3cc(C(C)C)ccc3o2)cc1NC(=O)COc1ccc(C)cc1C
#30 COc1ccc2nc(C)c3cc(C)oc3c2c1

| screen / no. | 26 | 27 | 28 | 29 | 30 |
| --- | --- | --- | --- | --- | --- |
| miR-21 reporter | 1.6% | -0.6% | 24.9% | -14.2% | -11.9% |
| ClpP mod | 0.4% | 1.1% | -0.9% | -17.7% | -8.2% |
| Nrf2 block | ? | ? | 25.9µM* | ? | -10.5% |
| A549 tox | -7.6% | -7.7% | ? | 0.4% | 3.6% |
| p53 reactivator | -11.8% | / | / | / | -1.4% |
| Nrf2 activator | 4.5% | 0.6% | -0.1% | 0.0% | 0.8% |

#31 COc1cccc2c1nc(C)c1cc(C)oc12
#32 COc1ccc(-n2cc(C(=O)Oc3cc(C)cc(C)c3)c3ccccc3c2=O)cc1
#33 O=C(/C=C/c1ccc(Cl)cc1)NC(=S)Nc1ccc(N2CCOCC2)c(Cl)c1
#34 O=C(/C=C/c1ccccc1)NC(=S)Nc1ccc(N2CCOCC2)cc1
#35 COc1ccc(C2=Nn3c(nnc3-c3ccccc3OC)SC2)cc1

| screen / no. | 31 | 32 | 33 | 34 | 35 |
| --- | --- | --- | --- | --- | --- |
| miR-21 reporter | -44.4% | -3.5% | -15.8% | -5.6% | / |
| ClpP mod | 28.2µM* | -3.3% | 1.1% | 1.0% | / |
| Nrf2 block | ? | / | 16.4µM* | ? | ? |
| A549 tox | 9.5% | -5.3% | -12.3% | -0.7% | -9.3% |
| p53 reactivator | ? | / | 2.4% | -2.5% | / |
| Nrf2 activator | 2.6% | -0.1% | -0.9% | 3.6% | / |

#36 CCN(CC)c1ccc(/C=C/c2c(C)cnc3ccccc23)cc1
#37 Cc1cc2c(c(=O)n1-c1ccccc1)C1O[C@](c3ccsc3)(Cc3ccccc31)O2
#38 CCCn1nc(C(=O)Nc2ccc(S(=O)(=O)Nc3nccs3)cc2)c2ccccc2c1=O
#39 CCn1nc(C(=O)Nc2ccc(S(=O)(=O)Nc3ncccn3)cc2)c2ccccc2c1=O
#40 CN(C)c1ccc(C(I)C(I)c2ccnc3ccccc23)cc1 (stereo not given)

| screen / no. | 36 | 37 | 38 | 39 | 40 |
| --- | --- | --- | --- | --- | --- |
| miR-21 reporter | / | -9.5%[7.66 µM] | 0.2% | -6.9% | / |
| ClpP mod | -1.0% | / | 25.1µM* | / | -14.2% |
| Nrf2 block | / | / | ? | -12.2% | / |
| A549 tox | / | / | -11.5% | -0.1% | / |
| p53 reactivator | / | / | -10.1% | -0.3% | / |
| Nrf2 activator | / | / | 0.4% | 0.1% | / |

#41 CC1=NN(C(N)=S)C(=O)C1N=Nc1ccc(O)cc1 (stereo not given)
#42 CC1=NN(C(N)=S)C(=O)C1N=Nc1ccc(F)cc1 (stereo not given)
#43 O=C(Nc1ccccc1)NN(C(=O)CCl)c1ccccc1
#44 CCC(O)(CC)C(=O)NN(C(=O)CCl)c1ccccc1
#45 CN1CCN(c2cc(-c3ccccc3)nc3cc(-c4ccc(F)cc4)nn23)CC1

| screen / no. | 41 | 42 | 43 | 44 | 45 |
| --- | --- | --- | --- | --- | --- |
| miR-21 reporter | -15.4% | -55.2% | ? | 16.2% | 0.1% |
| ClpP mod | / | 1.0% | / | 1.1% | 22.4µM* |
| Nrf2 block | 5.6% | ? | 20.6µM* | ? | -21.6% |
| A549 tox | ? | -12.6% | ? | -4.1% | -1.2% |
| p53 reactivator | 4.4% | 25.1µM* | -28.2% | -27.2% | 3.3% |
| Nrf2 activator | 3.8% | 3.6% | ? | ? | 3.0% |

Screening results as filed in PubChem BioAssay.
